Values quoted from earlier work, collected in patent EP3783012A1, “AN ANTIMICROBIAL PEPTIDE” (priority 2019, dated 2021).
Like-named read-outs stand apart in the source and are kept apart here.

What was measured:
[1] = cited from earlier work
[2] = in vivo; cited from earlier work
[3] = test system: lipoproteins; details: binding to lipoproteins; cited from earlier work

Substance: desmopressin
- half-life ([1]; healthy human volunteers): 3.7 h

Substance: octreotide
- half-life ([1]; in humans): about 100 min
- plasma half life time [2]: 1.5 h
- fraction unbound [3]: 0.65
